Measurements reported in patent US6984639B2, “Heterocyclic ketone and thioester compounds and uses” (GPI NIL Holdings, Inc., priority 1996, dated 2006).

System: cultured chick sensory neurons from dorsal root ganglia
Assay: Chick Dorsal Root Ganglion Cultures and Neurite Outgrowth
Type: cell-based
Method: Dorsal root ganglia were dissected from chick embryos of ten day gestation. Whole ganglion explants were cultured on thin layer Matrigel-coated 12 well plates with Liebovitz L15 plus high glucose media supplemented with 2 mM glutamine and 10% fetal calf serum, and also containing 10 μm cytosine β-D arabinofuranoside (Ara C) at 37° C. in an environment containing 5% CO2. Twenty-four hours later, the DRGs were treated with various concentrations of nerve growth factor, immunophilin ligands or combinations of NFG plus drugs. Forty-eight hours after drug treatment, the ganglia were visualized under phase contrast or Hoffman Modulation contrast with a Zeiss Axiovert inverted microscope. Photomicrographs of the explants were made, and neurite outgrowth was quantitated. Neurites longer than the ORG diameter were counted as positive, with total number of neurites quantitated per each experimental condition. Three to four DRGs are cultured per well, and each treatment was performed in duplicate.
Dose-response curves were generated from which ED50 values were obtained.

Measured: neurite outgrowth in sensory neurons (photomicrograph)

2-Phenyl-1-ethyl (2S)-1-(3,3-dimethyl-1,2-dioxopentyl)-2-pyrrolidinecarbothioate [Compound 9]
promoting neurite outgrowth: 10 pM | 1 nM | 100 nM
